One compound from article PMC8665103 (Journal of medicinal chemistry, 2021) can be followed below.

Structures are written as SMILES.

The format of this series is physicochemical. As to conditions: DLS, 50 mM KPi pH 7.0, 1% DMSO; literature hits.

For `O=C1CCc2ccc(OCCCCN3CCN(c4cccc(Cl)c4Cl)CC3)cc2N1` [Aripiprazole], the “CAC (critical aggregation concentration)” value came out at 19 µM.
